High-throughput results: PubChem BioAssay, National Center for Advancing Translational Sciences (NCATS)
In the library only some 13% were active in any assay of this set; here they are far more common.
JMJD2E inh: blocks human JMJD2E demethylase activity. B2RXH2. actives 1.6% (n = 230,000). JMJD2E catalytic domain, FDH-coupled NADH fluorescence (FDH is formaldehyde dehydrogenase). Potency, µM (highest dose often 57.1 µM), without a hit: at the highest dose activity change, negative = inhibition, actives largely listed as inhibitors; active = well fitted inhibition curve with a large enough effect, not every such curve was filed as active; inconclusive = small, poorly fitted or top-dose-only effect, or another doubt; inactive = no such curve, though single readings can be large or run the other way;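 also: potency is read from the fitted curve at half-maximal effect; 0% = wells with enzyme and -100% = buffer wells without enzyme; nearly all actives have a fitted effect of over 50% in size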
miR-21 reporter: miR-21 reporter, rising signal | HeLa miR-21 FLuc reporter, luciferase, 48 h | Potency, µM (doses to about 38.3 µM), inactives show at the top dose reporter change, positive = more light | 340,000 tested, under 10 active | AID 2288; active = well fitted rising curve with a large enough effect; inconclusive = small, poorly fitted or top-dose-only effect; inactive = no such curve, though single readings can be large or run the other way;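 note: % of control where 0% means no effect; miR-21 action dims this reporter so a rising signal means less miR-21 action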
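Luminescence from a firefly luciferase reporter carrying a miR-21 binding site downstream, stably expressed under a CMV promoter in HeLa cells that make miR-21 endogenously, reports miRNA modulation after 48 h compound exposure up to approximately 40uM final.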
LMNA splice mod: changes lamin A minigene splicing in HeLa cells; AID 1487; Potency, µM (series often up to 46.1 µM), for inactives: top-dose ratio change, negative = inhibition, most hits filed as inhibitors; HeLa LMNA splicing GFP/RFP minigene ratio, 48 h; actives 0.01% (n = 200,000); active = well fitted inhibition curve with a large enough effect in the signal ratio, with a control signal flat, not every such curve was filed as active; inconclusive = small, poorly fitted or top-dose-only effect, or effect the other way, or a change in a side signal; the % refers to the signal ratio; also: potency is read from the fitted curve at half-maximal effect; % is scaled to controls: 0 for no effect and ±100 for the full control effect
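S3 HeLa stable clones carrying a lamin A-EGFP splicing minigene plus DsRed2 were seeded at 600 cells/well in Opti-MEM with 2% FBS, pin-dosed and incubated 48 h at 37°C. Acumen cytometry (488 nm) gave the GFP/RFP total-intensity ratio.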
Sfp PPTase inh: qHTS Assay for Inhibitors of Bacillus subtilis Sfp phosphopantetheinyl transferase (PPTase) | 4'-phosphopantetheinyl transferase ffp (Bacillus subtilis), Q9F4F7 | Biochemical Sfp PPTase activity, qHTS | Potency, µM, for inactives: max response, negative = inhibition, hits mostly inhibitors | 3.5% of 310,000 active | AID 1490, 2009; active = well fitted inhibition curve with a large enough effect; inconclusive = small, poorly fitted or top-dose-only effect, or another doubt; inactive = no such curve, though single readings can be large or run the other way;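 also: the enzyme is Sfp with the accession as filed and its product quenches rhodamine fluorescence; potency is read from the fitted curve at half-maximal effect; 0% = enzyme reaction without inhibitor and -100% = no enzyme wells; top concentration of the series not given in the record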
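Fluorescence-quenching assay: 15 nM Sfp-PPTase preincubated 15 min at room temperature with compound, then 5 uM rhodamine-CoA and 12.5 uM BHQ-2-labelled YbbR peptide added. Fluorescence (ex 525/em 598 nm) read at start and after 30 min; difference gives rate.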
G9a block: inhibitors of human histone lysine methyltransferase G9a | Potency, µM (top dose mostly 102 µM), without a hit: at the top dose activity, negative = inhibition, actives largely listed as inhibitors | G9a H3K9 monomethylation, AlphaScreen, 2 h | actives 8.8% (n = 350,000) | Q96KQ7; also: potency is read from the fitted curve at half-maximal effect; % is scaled to controls: 0 for no effect and ±100 for the full control effect; nearly all actives have a fitted effect of over 75% in size
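Quantitative HTS format: methyltransferase activity on a biotin-tagged H3K9 peptide is measured by AlphaScreen, using a rabbit anti-monomethyl-H3K9 antibody with streptavidin donor and anti-IgG acceptor beads. Final levels are 20 nM enzyme, 500 nM peptide, 20 uM SAM; 2 h RT.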
ALDH1A1 block: blocks purified human ALDH1A1 activity. actives 7.3% (n = 220,000). Potency, µM (top dose mostly 75.3 µM), without a hit: at the highest dose activity, negative = inhibition, usual class: inhibitors. Purified ALDH1A1, NADH fluorescence, propionaldehyde substrate; active = well fitted inhibition curve with a large enough effect, not every such curve was filed as active; inconclusive = small, poorly fitted or top-dose-only effect, or another doubt; inactive = no such curve, though single readings can be large or run the other way;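 also: potency is read from the fitted curve at half-maximal effect; plate controls were no enzyme wells and a reference inhibitor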
* = called active by the depositor; ? = inconclusive; . = not tested or not shown; [ ] = dose if it differs, or a comment. Unless noted, calls follow the shape of the dose curve; as a rule, active = well fitted curve in the direction sought with a large enough effect; inconclusive = small, poorly fitted or top-dose-only effect, or another doubt; inactive = no such curve, though single readings can be large; an effect the other way counts as inactive or inconclusive.

#1 CC[n+]1c(C=C2C=C(C)OC(C)=C2)sc2ccccc21
#2 Cc1sc2ccccc2[n+]1CC(=O)O
#3 Cc1sc2ccccc2[n+]1CC(=O)c1ccccc1
#4 CC[n+]1c(C)sc2cc(C)ccc21
#5 O=C(CCc1nnc2ccc(NCc3ccco3)nn12)Nc1ccccc1F
#6 CCN(CC)S(=O)(=O)c1ccc(S(=O)(=O)N2CCC(N3CCCCC3)CC2)cc1
entry no.,1,2,3,4,5,6
JMJD2E inh,-7%,-17%,.,?,.,.
miR-21 reporter,?,-5%,-7%,4%,-1%,-2%
LMNA splice mod,.,.,.,?,.,.
Sfp PPTase inh,1%,2µM*,?,?,5%,7%
G9a block,-24%,?,10µM*,?,-9%,13%
ALDH1A1 block,?,.,.,-1%,.,.

#7 O=C(CSc1nc2c(c(=O)[nH]1)CCCC2)Nc1ccc(Br)cc1
#8 COc1ccc2nc(N=Nc3ccc(N(C)C)cc3)sc2c1
#9 COc1ccc2nc(/N=C\N(C)C)sc2c1
#10 Cc1ccc(-c2cc(C(=O)NCc3ccco3)c3ccccc3n2)o1
#11 COc1ccc(-c2cc(C(=O)Oc3ccc(C)cc3)c3ccccc3n2)cc1
#12 Cc1cc(C)c2nc(-c3ccccn3)cc(C(=O)NCc3cc(C)n(C)n3)c2c1
entry no.,7,8,9,10,11,12
JMJD2E inh,.,-7%,-12%,?,.,?
miR-21 reporter,-2%,-21%,-22%,1%,-5%,-6%
LMNA splice mod,.,-3%,10%,6%,.,8%[46 µM]
Sfp PPTase inh,.,-1%,-11%,45µM*,.,2%
G9a block,-32%[59 µM],22µM*,?,?,249%[59 µM],9%[59 µM]
ALDH1A1 block,.,4%,-8%,?,.,?

#13 Cc1cc(C(=O)Nc2ccccc2C)c2ccccc2n1
#14 Cc1cc(C)c2nc(-c3ccccn3)cc(C(=O)NCc3ccco3)c2c1
#15 Cc1cc(C(=O)NCc2ccco2)c2ccccc2n1
#16 COC(=O)c1cc(-c2ccc(C)o2)nc2ccccc12
#17 Cc1ccc(-c2cc(C(=O)Nc3ccccc3C)c3ccccc3n2)o1
#18 Cc1cnc(SCCc2ccncc2)nc1C
entry no.,13,14,15,16,17,18
JMJD2E inh,.,?,-1%,?,?,-9%
miR-21 reporter,-6%,-2%,7%,-8%,-3%,-4%
LMNA splice mod,.,20%,.,?,-10%,-7%
Sfp PPTase inh,5%,56µM*,8%,11µM*,8.9µM*,11µM*
G9a block,22%[0.501 µM],-10%[59 µM],?,?,1.8µM*,8.9µM*
ALDH1A1 block,.,?,12%,?,?,?

#19 Cc1ccc(N2NC3(CCN(C(N)=O)CC3)NC2=O)cc1
#20 COC(=O)C/C=C\[C@@H](C)[C@@H](/C=N\OC[C@@H](O)[C@H]1O[C@H]2OC(C)(C)O[C@H]2[C@@H]1O)NS(=O)(=O)c1ccc(C)cc1
#21 c1csc(CNc2ncncc2-c2ccoc2)c1
#22 CCc1nn(CC(=O)NCCC2=CCCCC2)c(=O)c2cc3cc(F)ccc3n12
#23 CCOC(=O)c1ccc2ncc(C(=O)OCC)c(Nc3ccc(N4CCOCC4)cc3)c2c1
#24 CCOC(=O)c1cnc2ccccc2c1Nc1ccc(N2CCOCC2)cc1
entry no.,19,20,21,22,23,24
JMJD2E inh,-2%,.,.,.,-4%,.
miR-21 reporter,6%,.,.,2%,2%,4%
LMNA splice mod,.,.,-15%,.,?,.
Sfp PPTase inh,-12%,2%,8%,-8%,50µM*,.
G9a block,0.71µM*,.,-8%[0.501 µM],.,?,?
ALDH1A1 block,-5%,-3%[13.5 µM],?,.,5%,.

Four entries picked at random from those above, as already listed:
#22 CCc1nn(CC(=O)NCCC2=CCCCC2)c(=O)c2cc3cc(F)ccc3n12
#19 Cc1ccc(N2NC3(CCN(C(N)=O)CC3)NC2=O)cc1
#23 CCOC(=O)c1ccc2ncc(C(=O)OCC)c(Nc3ccc(N4CCOCC4)cc3)c2c1
#21 c1csc(CNc2ncncc2-c2ccoc2)c1
entry no.,22,19,23,21
JMJD2E inh,.,-2%,-4%,.
miR-21 reporter,2%,6%,2%,.
LMNA splice mod,.,.,?,-15%
Sfp PPTase inh,-8%,-12%,50µM*,8%
G9a block,.,0.71µM*,?,-8%[0.501 µM]
ALDH1A1 block,.,-5%,5%,?

Further structures:
#25 CCOC(=O)c1cnc2c(C)cccc2c1Nc1ccc(N2CCOCC2)cc1
#26 CCOC(=O)c1cnc2c(C)c(Cl)ccc2c1Nc1ccc(N2CCOCC2)cc1
#27 CCOC(=O)c1cnc2ccccc2c1Nc1cc(C(=O)O)ccc1C
#28 Cc1ccc(NC(=O)c2ccc(Cl)c(S(=O)(=O)N3CCCCC3)c2)nc1
#29 CN1CCN(c2nc(-c3ccc(Cl)cc3)nc3ccccc23)CC1
#30 COc1ccc(N2CCN(c3ncnc4sc(C(=O)NCC5CCCO5)c(C)c34)CC2)cc1 (stereo unspecified)
#31 CCOC(=O)c1cnc2ccc(OC)cc2c1Nc1ccc(N2CCN(C)CC2)cc1
entry no.,25,26,27,28,29,30,31
JMJD2E inh,1%,.,-4%,.,.,.,.
miR-21 reporter,-2%,-5%,-1%,.,-1%,4%,13%
LMNA splice mod,3%,.,.,.,.,.,.
Sfp PPTase inh,-29%,.,24%,.,4%,10%,-8%
G9a block,28µM*,7.9µM*,50µM*,8%[12.7 µM],26%,40µM*,35µM*
ALDH1A1 block,5%,.,1%,.,.,.,.
